Key:
[1] = molecular target: T1, WD repeat-containing protein 5 (Homo sapiens, UniProt P61964); test: Binding affinity to WDR5 (unknown origin) by isothermal titration calorimetry assay
[2] = Apparent volume of distribution in Sprague-Dawley rat at 2 mg/kg, iv measured upto 24 hrs by LC-MS/MS analysis; format: ADME, organism-based; conditions: in vivo
[3] = molecular target: T1, WD repeat-containing protein 5
[4] = molecular target: T1, WD repeat-containing protein 5; remark: listed apart in the source

Work on CN1CCN(c2cc(F)c(-c3ccc(C(=O)N(C)C)cc3)cc2Nc2ncnc(Cl)c2N)CC1 yielded a Kd [1] of 73 nM, a Vz/F [2] of 12.2 L/kg and a deltaH [3] of -12.2 kcal/mol. The deltaG [4] was -9.73 kcal/mol.

Reference: ChEMBL document CHEMBL5033998, “Discovery of DDO-2213 as a Potent and Orally Bioavailable Inhibitor of the WDR5-Mixed Lineage Leukemia 1 Protein-Protein Interaction for the Treatment of MLL Fusion Leukemia” (J Med Chem, 2021)
